Results: patent US20080038267A1, “Treatment Of Cancer” (NEUTEC PHARMA LIMITED, priority 2004, published 2008)

Legend:
HS578T cells = experiment: Cell Titer Blue viability, single drug, HS578T cells; assay type: cell-based, human; details: 48 hour incubation
Protocol: Viable cells reduce resazurin to resorufin (pink). Cell growth was evaluated as described above. […] The cell lines were split and cells counted. […] The next day, the cells were observed under phase contrast microscopy to ensure they had adhered to the plates and the supernatant medium removed by aspiration. […] Experiments were also performed with HS578T cells using the above methodologies, and results are given below. HS578T—ECACC number 86082104, Human breast carcinoma, Epithelial. Tumorigenic in immunosuppressed mice and form colonies in semisolid medium. Oestrogen receptor negative.

MCF7 cells = experiment: Cell Titer Blue viability, single drug, MCF7 cells; assay type: cell-based, human; details: Herceptin alone
Protocol: Viable cells reduce resazurin to resorufin (pink). Cell growth was evaluated as described above. […] The cell lines were split and cells counted. […] The next day, the cells were observed under phase contrast microscopy to ensure they had adhered to the plates and the supernatant medium removed by aspiration. […] Human breast adenocarcinoma cell line MCF7, expressing both wild type and variant oestrogen receptors as well a progesterone receptor, was obtained from ECACC (ECACC number—86012803).

“Herceptin: monoclonal antibody used for the treatment of HER2 protein overexpressing metastatic breast cancer” was tested, and the IC50 (HS578T cells) was over 200 mg/L and the “activity of the single agent” value (MCF7 cells) was “no detectable activity”.
